One compound from PMC3831292, “The pungent substances piperine, capsaicin, 6-gingerol and polygodial inhibit the human two-pore domain potassium channels TASK-1, TASK-3 and TRESK” (Frontiers in Pharmacology, 2013) can be followed below.

Protein sequences, listed by entry. Tags and fused reporters are not part of them. Lines headed by an entry give the natural chain unless they say otherwise; changes in a name come on top.
UniProt O14649: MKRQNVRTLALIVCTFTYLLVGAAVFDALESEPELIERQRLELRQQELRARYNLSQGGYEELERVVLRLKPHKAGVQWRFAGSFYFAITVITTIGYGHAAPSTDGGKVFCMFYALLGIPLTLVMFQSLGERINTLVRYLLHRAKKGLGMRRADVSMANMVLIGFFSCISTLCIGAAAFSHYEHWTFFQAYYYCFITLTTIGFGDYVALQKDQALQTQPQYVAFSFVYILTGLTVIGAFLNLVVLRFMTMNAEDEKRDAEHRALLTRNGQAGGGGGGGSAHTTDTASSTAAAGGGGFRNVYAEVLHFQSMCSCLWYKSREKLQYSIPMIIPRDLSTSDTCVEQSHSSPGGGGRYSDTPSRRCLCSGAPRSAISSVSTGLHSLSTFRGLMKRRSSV

SMILES strings stand for the structures.

For the experiment, the target named is T1, hTASK-1 (K2P3.1, KCNK3) (Homo sapiens, UniProt O14649).
T1 construct: full-length cDNA in pIRES-CD8 vector; cRNA injected into Xenopus laevis oocytes
Description: two-electrode voltage clamp, Xenopus oocytes. Conditions: read-out: TASK-1. Type of experiment: cell-based. The source says: two-electrode voltage clamp, Xenopus oocytes on hTASK-1 (K2P3.1, KCNK3)
Background: Two-electrode voltage clamp holds a large cell at a set potential and records current.

Consider `O=C(/C=C/C=C/c1ccc2c(c1)OCO2)N1CCCCC1` [piperine], for which the IC50 is 45 ± 3.9 µM.
